Target: T1, fatty acid amide hydrolase (FAAH) (Rattus norvegicus, UniProt P97612)
T1 construct: from tissue; host or cells: rat brain membrane fraction
Format: binding

Sequences of proteins named here, by UniProt entry; tags and fusion partners are left off.
UniProt P97612, whole entry: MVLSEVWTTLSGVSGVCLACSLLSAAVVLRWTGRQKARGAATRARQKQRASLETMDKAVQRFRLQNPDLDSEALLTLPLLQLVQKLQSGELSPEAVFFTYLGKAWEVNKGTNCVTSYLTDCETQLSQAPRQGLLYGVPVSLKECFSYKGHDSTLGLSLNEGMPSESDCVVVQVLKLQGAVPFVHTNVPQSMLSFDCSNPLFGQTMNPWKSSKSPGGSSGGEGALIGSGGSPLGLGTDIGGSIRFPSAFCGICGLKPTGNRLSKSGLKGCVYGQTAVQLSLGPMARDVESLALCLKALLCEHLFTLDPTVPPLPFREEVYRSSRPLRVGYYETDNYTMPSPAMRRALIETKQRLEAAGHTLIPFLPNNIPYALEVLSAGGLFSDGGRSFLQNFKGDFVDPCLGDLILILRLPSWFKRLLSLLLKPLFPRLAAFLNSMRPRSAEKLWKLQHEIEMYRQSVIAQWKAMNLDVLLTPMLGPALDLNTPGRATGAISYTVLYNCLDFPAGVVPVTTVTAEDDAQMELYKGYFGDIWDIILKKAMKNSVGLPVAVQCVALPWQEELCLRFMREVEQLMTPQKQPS

## oleoyl trifluoromethyl ketone [OTFMK]
  selectivity for FAAH among other brain membrane serine hydrolases: approximately one order of magnitude

— patent publication US20050287594A1 (priority 2000, published 2005)
